Key:
[1] = system: uterus; assay: Appearance of the uterus in treated mice; assay type: in vivo, mouse; conditions: after PMSG, or PMSG followed by hCG or leptin; leptin: ob/ob mice that ovulated
Source text: The difference between hCG and leptin treatment was also noticed in the appearance of the uterus. […] This appearance was clearly observed in PMSG-treated mice (not shown). […] These difference in the uterine physiology and appearance further support the notion that the leptin-induced ovulation is independent of LH activity.

[2] = system: ADAMTS-1; assay: ADAMTS-1 expression in cultured pre-ovulatory follicles (quantitative RT-PCR); assay type: cell-based, mouse; conditions: 17 h; leptin 250 ng/ml or hCG 1 IU; normalized to ribosomal protein L19; FIG. 2
Procedure: Pre-ovulatory follicles were removed cultured and further treated for 17 h in the absence (c) or presence of either leptin (250 ng/ml) or hCG (1 IU). Total RNA was isolated from the follicles and subjected to quantitative RT-PCR with specific primers for two proteases, ADAMTS-1 and Cathepsin L. The PCR products were resolved in agarose gel electrophoresis and scanned. The RNAs levels of ADAMTS-1 were normalized to the RNAs levels of ribosomal protein
To test whether leptin can induce the expression of ADAMTS-1 and cathepsin L by acting directly on the ovary, in vitro experiments were preformed on pre-ovulatory follicles obtained from 21 days old C57BL/6 mice treated with PMSG (3 IU/animal) for 48 h. Pre-ovulatory follicles were removed, cultured and further treated for 17 h in the absence or presence of either leptin (250 ng/ml) or hCG (1 IU). Total RNA was isolated from the follicles and subjected to quantitative RT-PCR using the LightCycler™ (Roche diagnostics). The primers used for the detection of murine ADAMTS-1 transcripts were: […]
The RNAs levels of ADAMTS-1 and cathepsin L detected in agarose gel electrophoresis of the PCR products were normalized to the RNAs levels of murine ribosomal protein L19

[3] = system: ob/ob mice; assay: Ovulation induction in antide-treated ob/ob mice (oocyte count); assay type: in vivo, mouse
Procedure: (§1) In the present example, ovulation was studied in ob/ob mice and in prepubertal C57BL/6 mice. All mice were treated with antide to prevent induction of LH by leptin. […] In a second group of mice, hCG was replaced by leptin. Following the various treatments, mice were sacrificed and oocytes were collected from the ampoule at 72 hours from the first injection and counted.
(§2) Control ob/ob mice were injected with PMSG (3 IU/animal, purchased from Tiferet Hacarmel pharmacy, Tel Yizhack, Israel) and after 48 h with hCG, the mimicker of LH (human hCG Gibco, USA 5 IU/animal). Similarly a group of ob/ob mice were injected with PMSG (3 IU/animal) and after 48 h with leptin (2×5 μg/g weight). 24 hours following the hCG or leptin treatment (72 hours from the PMSG treatment) the animals were sacrificed, the ovaries extracted and the formation of corpora lutea, a marker of ovulation, was examined by staining of ovarian sections. Ovulation was monitored by counting oocytes in the oviducts under the microscope.

[4] = system: progesterone; assay: Serum progesterone radioimmunoassay in ob/ob and C57BL/6 mice; assay type: in vivo, mouse; conditions: PMSG at time 0, agent at 48 h, RIA at 72 h; FIG. 1
Procedure: Mice were treated with PMSG at time 0 and the indicated agent at 48 h. Progesterone was determined by RIA at 72 h in sera of C57BL/6 mice (grey bars) and of ob/ob mice (open bars).
Leptin induces the GnRH release from the Hypothalamus, which in turn releases FSH and LH from the Pituitary glands (Yu et al. 1997). To test if the follicle development and ovulation induced in the antide-treated C57BL mice and ob/ob mice by leptin is mediated by LH release, serum LH as well as progesterone, which is an LH-induced marker was measured. Measurement of plasma murine LH (mLH) and progesterone were carried out with specific radioimmunoassays. Progesterone was determined in mouse sera by RIA (Kohen 1975). LH was determined in mouse by a specific RIA, obtained trough the National Hormone & Pituitary Program, harbor-UCLA Medical Center (Torrance, California). The levels of mLH were below 0.2 ng/ml in all cases (Table 2). The levels of LH remained low throughout the follicular growth and ovulation in leptin-treated mice. However, it is difficult to detect the LH surge even in positive controls. Therefore, measurement of the LH-induced serum progesterone serve as a more reliable marker of circulating LH.

[5] = system: C57BL/6 mice; assay: Ovulation induction in antide-treated prepubertal C57BL/6 mice (oocyte count); assay type: in vivo, mouse
Procedure: as §1, §2

[6] = antide-treated, PMSG at 0 h, leptin or hCG at 48 h, oocytes counted at 72 h, range

Q: With “human chorionic gonadotropin [hCG, reference compound]” as the substance, how does the “uterus distension and hyperemia” value [1] read?
A: the distension and hyperemia subside

Q: What about the “induction of ADAMTS-1 RNA” value [2] of the same substance?
A: significant induction

Q: And the “ovulation (oocytes in the oviducts)” value ([3]; PMSG then agent at 48 h, summary of Table 1)?
A: ovulation was observed

Q: What about the “Oocyte count in ob/ob mice” value [3, 6] of the same substance?
A: (1-6) oocytes per mouse

Q: What about the serum progesterone [4] of the same substance?
A: increased serum progesterone

Q: What about the “mice ovulated, C57BL/6 mice” value ([5]; antide + PMSG (48 h) then leptin or hCG (24 h)) of the same substance?
A: 3 out of 3 mice

Q: And the “Oocyte count in C57BL/6 mice” value [5, 6]?
A: (12-28)

Source: patent US20050065080A1, “Use of leptin in fertility” (priority 2001, published 2005)
